Test results reported in ChEMBL document CHEMBL1144415, “Identification of novel low molecular weight CXCR4 antagonists by structural tuning of cyclic tetrapeptide scaffolds” (J Med Chem, 2005).

Protein sequences, listed by entry. Tags and fused reporters are not part of them.
UniProt P61073, whole entry: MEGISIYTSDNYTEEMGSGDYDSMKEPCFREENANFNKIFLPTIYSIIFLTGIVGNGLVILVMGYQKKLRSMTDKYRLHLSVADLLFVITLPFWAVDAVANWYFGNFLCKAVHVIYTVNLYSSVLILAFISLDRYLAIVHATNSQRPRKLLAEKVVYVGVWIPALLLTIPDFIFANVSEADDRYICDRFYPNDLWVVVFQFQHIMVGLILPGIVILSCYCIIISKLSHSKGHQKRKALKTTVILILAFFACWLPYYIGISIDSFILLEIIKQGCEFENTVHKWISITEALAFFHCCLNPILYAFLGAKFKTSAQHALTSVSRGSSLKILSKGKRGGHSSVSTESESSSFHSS

Molecular target: C-X-C chemokine receptor type 4 (Homo sapiens, UniProt P61073)
Test: Inhibition of [125I]SDF-1 binding to C-X-C chemokine receptor type 4 (CXCR4) expressed in CHO cells
Assay type: cell-based
Method in brief: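 Stable CXCR4-expressing CHO transfectants harvested with trypsin-EDTA, recovered 4 to 5 h in complete growth medium, washed in cold binding buffer (PBS with 2 mg/mL BSA). Cells at 1 × 10⁷ cells/mL incubated with 0.1 nM [¹²⁵I]-SDF-1 for 2 h on ice with agitation. Bound and free separated by centrifugation through oil cushion, gamma counting. IC50 from at least three independent experiments, mean with SD.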

`N=C(N)NCCC[C@@H]1NC(=O)[C@@H](CCCNC(=N)N)NC(=O)[C@@H](Cc2ccc(O)cc2)NC(=O)CNC(=O)[C@H](Cc2ccc3ccccc3c2)NC1=O` gave an IC50 (cho) of 4.3 nM.

`N=C(N)NCCC[C@@H]1NC(=O)[C@H](CCCNC(=N)N)NC(=O)[C@@H](Cc2ccc(O)cc2)NC(=O)CNC(=O)[C@H](Cc2ccc3ccccc3c2)NC1=O` showed an IC50 of 8.4 nM.
